# Test results from patent US20110028552A1, “MEXILETINE AMINO ACID AND PEPTIDE PRODRUGS AND USES THEREOF” (priority 2009, published 2011).
# Target: T1, hNav 1.1 channel (Homo sapiens, UniProt P35498)
# T1 construct: expressed in transfected cells
# Test: Block of cloned hNav1.1 channel in CHO cells (IonWorks Quattro)
# Type: cell-based
# Protocol: Data was corrected for leak current.
# The tonic block was calculated as:
# % Block (Tonic)=(1−ITP1,TA/ITP1,Control)×100%,
# where ITP1, Control and ITP1, TA are the inward peak Na^+ currents elicited by the TP1 in control and in the presence of a test article, respectively. 10 Hz Block—the frequency-dependent block at stimulation frequency 10 Hz was calculated as: […]
# where ITP11, Control and ITP11, TA are the inward peak Na^+ currents elicited by the TP11 in control and in the presence of a test article, respectively. The inactivation state block is defined as the decrease in test pulse (TP12) current amplitude due to the conditioning depolarizing pulse (TP11). The inactivation state block was calculated as:
# % Block (inactivation state)=(1−(ITP12,TA/ITP12,TA)×100%,
# where ITP12, Control and ITP12, TA are the inward peak Na^+ currents elicited by the TP12 in control and in the presence of a test article, respectively. Concentration-response data for the blocks were fit to an equation of the following form: […]
substance,measurement,setting,value
Mexiletine arginine amide,IC50,"hNav1.1, 10 Hz block, rounded values, read-out: IC50 values (with the 10 Hz block)",811 µM
same,IC50 fold above the parent,"hNav1.1, relative to mexiletine",~20 fold
same,IC50,"hNav1.1 in CHO cells, frequency-dependent block at 10 Hz (TP11), read-out: IC50 10 Hz block",811 µM
same,IC50,"hNav1.1 in CHO cells, inactivation state block (TP12), read-out: IC50 Inactivated state",328 µM
same,IC50,"hNav1.1 in CHO cells, tonic block (TP1), read-out: IC50 Tonic block",> 1000 µM

# Like-named read-outs stand apart in the source and are kept apart here.
